Source: US20200109126A1 (priority 2017, published 2020)

By UniProt entry, the sequences of proteins in these tests, tags left out.
UniProt P41143, whole entry: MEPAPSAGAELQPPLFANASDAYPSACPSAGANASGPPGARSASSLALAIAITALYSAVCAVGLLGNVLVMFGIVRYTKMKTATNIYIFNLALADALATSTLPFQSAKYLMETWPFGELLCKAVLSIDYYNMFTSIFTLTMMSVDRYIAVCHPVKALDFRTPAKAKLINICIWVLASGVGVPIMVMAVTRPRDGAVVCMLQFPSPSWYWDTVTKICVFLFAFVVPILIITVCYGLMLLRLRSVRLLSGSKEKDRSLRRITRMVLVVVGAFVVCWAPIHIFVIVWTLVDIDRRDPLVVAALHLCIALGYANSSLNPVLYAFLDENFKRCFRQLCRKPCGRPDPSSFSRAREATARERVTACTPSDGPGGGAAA

Molecular target: humanDOR (Homo sapiens, UniProt P41143)
Experiment: Receptor binding with [3H]diprenorphine at human DOR
Conditions: binding affinity Ki hDOR

Q: With `C[C@@H](NC(=O)[C@@H](N)Cc1ccc(O)cc1)C(=O)NCC(=O)N(C)[C@@H](Cc1ccccc1)C(=O)NCCO` [drawing 485] as the compound, how does the Ki read?
A: Its Ki is 980 nM.
